Target: ATIC (AICARFT) (Homo sapiens, UniProt P31939)
Assay: Folate dependent enzyme assay, conversion of ZMP to IMP (LC-MS)
Format: biochemical
Excerpt: Human ATIC (accession number: NM_004044.6) cDNA was purchased from Openbiosystem Co. (Cat# MHS1011-62310, Clone ID: 4300570, accession: BC008879). Human TS (accession number: NM_001071.2) cDNA was purchased from Invitrogen (Clone ID: 3138877). Human SHMT (accession number: NM_004169.3) cDNA was purchased from Openbiosystem Co. (Cat# MHS1010-9204609, Clone ID: 4523709, accession: BC038598). Human MTHFD1 (accession number: NM_005956.3) cDNA was purchased from Openbiosystem Co. (Cat# MHS1011-169900, Clone ID: 3508998, accession: BC009806), which contains two mutations and was fixed by PCR-based mutagenesis. The human MTHFD2 (accession number: NM_006636.3) and MTHFD2L (accession number: NM_001144978.1) cDNAs were synthesized at GenScript. The nucleotide sequences encoding full-length human AICARFT, TS, SHMT, MTHFD1, and partial sequences MTHFD2 (32–350) and MTHFD2L (46–347) were inserted into pET21d (Novagen) vector with an N-terminal HIS tag. Bacterial BL21 (DE3) (Novagen) was used as an expression host, and protein purification is described in supplemental material. […]
Catalytic activity was assayed under the listed reaction conditions using a liquid chromatograph and either fluorescence or mass spectrometric detection as indicated. […]

By UniProt entry, the sequences of proteins in these tests, tags left out. Where a name states a change or a piece, a line headed by the entry shows the natural chain unless it says otherwise.
UniProt P31939: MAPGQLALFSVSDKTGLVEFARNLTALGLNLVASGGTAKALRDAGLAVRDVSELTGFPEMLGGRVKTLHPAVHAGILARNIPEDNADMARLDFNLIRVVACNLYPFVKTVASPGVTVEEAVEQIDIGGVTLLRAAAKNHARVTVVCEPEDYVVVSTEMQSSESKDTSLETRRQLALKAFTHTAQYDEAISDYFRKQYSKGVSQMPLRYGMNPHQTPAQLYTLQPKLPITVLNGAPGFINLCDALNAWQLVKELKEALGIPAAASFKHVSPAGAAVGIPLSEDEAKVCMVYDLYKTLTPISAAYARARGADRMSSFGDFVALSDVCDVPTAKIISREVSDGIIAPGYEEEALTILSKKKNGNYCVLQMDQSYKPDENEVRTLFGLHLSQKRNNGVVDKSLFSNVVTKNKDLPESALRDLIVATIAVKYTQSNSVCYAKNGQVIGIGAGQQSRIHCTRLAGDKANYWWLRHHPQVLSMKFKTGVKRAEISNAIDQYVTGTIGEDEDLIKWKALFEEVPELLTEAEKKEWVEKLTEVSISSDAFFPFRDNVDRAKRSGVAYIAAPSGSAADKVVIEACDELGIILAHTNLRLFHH

O=c1[nH]ccc2cc(F)c(NS(=O)(=O)c3ccc(N4CC[C@@H](O)C4)s3)cc12 [LSN3213128, N-(6-Fluoro-1-oxo-1,2-dihydroisoquinolin-7-yl)-5-[(3R)-3-hydroxypyrrolidin-1-yl]thiophene-2-sulfonamide]
IC50: 16 nM
